# Yeast mating assay B: variants of the scFv Ab-14

Data: MIT Lincoln Laboratory AlphaSeq set, Li et al. 2023, doi:10.1038/s41467-023-39022-2, as distributed in FLAb.

All variants were tested on one target, the spike HR2 peptide PDVDLGDISGINAS (SARS-CoV-2).

Ab-14 is the parent antibody, in scFv form: VH, then the linker GGGGSGGGGSGGGGS, then VL. The heavy chain is unchanged in all variants.
VH: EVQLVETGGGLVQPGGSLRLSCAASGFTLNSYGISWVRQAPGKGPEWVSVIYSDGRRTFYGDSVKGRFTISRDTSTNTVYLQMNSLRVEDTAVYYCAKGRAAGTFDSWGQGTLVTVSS
VL: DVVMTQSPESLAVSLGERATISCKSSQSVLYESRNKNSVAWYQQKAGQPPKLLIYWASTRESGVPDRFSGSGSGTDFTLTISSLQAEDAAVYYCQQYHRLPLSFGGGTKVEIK

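Phage display of a naive human antibody library on the peptide gave the parent. The variants were designed computationally from a first round of random CDR variants and then made and measured. Group labels follow the data file (Ctrl: baseline library sampled from a position-specific scoring matrix, with some repeated check sequences; Rand: our label for a block that the file lists under HC and that is probably the random mutants of the ten best first-round binders; GP: Gaussian process model; HC: hill climbing; Gen: genetic algorithm; Gibbs: Gibbs sampling; a sequence that several methods proposed may carry one label only). AlphaSeq pools MATa yeast showing the antibodies with MATalpha yeast showing the peptide. Pairs that bind mate more often; barcode pairs of the diploids are counted by sequencing. Read counts were normalised to the haploid input and turned into Kd by a linear fit to BCL2-family pairs of known affinity, for each replicate. Mating was done six times.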

Substitutions are numbered in sequence along the VL above, starting at 1 (not Kabat).
Variants here have at most six changes.
Scale: log10 of Kd in nM, estimated from mating counts; low values are strong binders.
Where no diploid with the target was found in that replicate, the entry reads "n.d.": below detection, most likely a poor binder, though not proof of it.

| changes | group | log10 Kd (nM) by replicate |
|---|---|---|
| S25L/V29W/W56E/E61M | GP_Gen | -0.02 -0.22 -0.22 -0.45 -0.17 0.11 |
| S25V/S26P/W56H/S62D | GP_HC | -0.08 -0.22 -0.18 -0.33 -0.20 -0.13 |
| R34M | Ctrl | 1.43 2.47 1.43 2.42 1.79 1.95 |
| S25L/V29W/W56N/T59Q/S62D | GP_Gen | 0.25 0.21 0.32 -0.14 0.20 0.48 |
| K24H/S25L/W56E/E61C | GP_Gen | 0.04 0.35 0.00 -0.04 -0.10 0.34 |
| V29W/W56A/E61M/Q96V/R99H | Ctrl | 1.24 1.23 1.24 1.30 1.27 1.32 |
| S25V/K36P/W56N | GP_Gen | 0.07 0.01 -0.01 -0.16 -0.15 -0.03 |
| S25L/V29N/S33W/K36D/W56N/E61M | GP_Gibbs | 0.66 0.63 0.41 0.02 0.29 0.38 |
| S38G/Y97T/P101H | Ctrl | n.d. n.d. n.d. n.d. n.d. n.d. |
| S26M/V29Q/L30E/W56H/S62D | GP_HC | 0.51 0.09 0.05 0.18 0.02 0.24 |
| S25I/W56E/E61L | GP_Gen | -0.15 -0.13 -0.23 0.05 -0.28 -0.15 |
| S26L/N37C/V39G/W56H/T59R/S62D | Rand | n.d. n.d. n.d. n.d. n.d. n.d. |
| S25F/W56E/S62Q | GP_Gen | 0.72 0.18 0.51 0.09 0.25 0.82 |
| K24H/S25L/L30Q/W56N | GP_Gen | 0.00 -0.09 0.01 -0.32 -0.10 0.07 |
| S25L/Q27G/V29E/W56N/E61L | GP_Gen | -0.09 -0.41 -0.57 -0.44 -0.21 -0.37 |
| S62D/Q96R | Ctrl | n.d. n.d. n.d. n.d. n.d. n.d. |
| K36V/V39M/W56A/R99M | Ctrl | 1.50 0.87 0.79 0.74 0.83 1.06 |
| S25V/V29N/W56N/S103Q | GP_Gen | -0.19 -0.29 -0.33 -0.54 -0.44 -0.30 |
| S25F/W56D/Q96D | GP_Gen | 0.06 -0.16 -0.24 -0.15 -0.08 -0.04 |
| K24R | Ctrl | 4.24 2.52 1.25 2.02 2.25 2.45 |
| S25L/S26Q/V29M/W56N/T59Q/E61L | GP_Gen | 0.12 -0.06 -0.17 -0.05 0.04 0.15 |
| S25L/L30G/W56Q | GP_Gen | 0.47 0.24 0.33 0.15 0.29 0.31 |
| K24H/S25L/V29W/W56N/T59Q/E61L | GP_Gen | 0.27 0.23 0.12 0.05 0.01 0.13 |
| S25M/S28A/L30W/W56E/T59L/S62Q | GP_Gibbs | -0.20 -0.32 -0.40 -0.61 -0.37 -0.10 |
| S25C/S33W/W56D | GP_HC | 0.25 0.25 0.36 0.06 0.06 0.55 |
| K24A/R34A/W56D/R99W/L100M | Ctrl | 0.96 4.34 1.20 n.d. 1.83 1.56 |
| L30W/N35Q/W56N/L100M | Ctrl | 1.02 0.78 1.01 0.96 1.02 0.89 |
| S25M/Y31M/S33D/W56D/T59L | GP_HC | -0.16 -0.22 -0.34 -0.28 -0.34 0.00 |
| S33T/W56N/T59E/S62D/S103L | Ctrl | 1.59 1.44 1.21 1.36 1.54 1.48 |
| S25M/V29E/W56N/T59Q/E61L | GP_Gen | 0.14 0.15 -0.07 -0.19 0.01 0.03 |
| N37K/S62F | Ctrl | n.d. n.d. 2.47 2.61 1.64 n.d. |
| S25F/E32Q/W56E | GP_Gen | -0.11 -0.30 -0.21 -0.60 -0.36 0.02 |
| S25L/S26D/V29E/W56N/E61M | GP_Gen | 0.16 -0.09 -0.27 -0.29 -0.20 0.00 |
| S25L/V29D/S38N/W56G | GP_Gen | -0.35 -0.39 -0.51 -0.50 -0.43 -0.24 |
| S25L/L30Q/N35Q/W56N | GP_Gen | 0.15 -0.03 -0.17 -0.05 -0.08 0.29 |
| S26D/E61V/S62N | Ctrl | 2.03 1.76 2.88 2.68 2.03 1.28 |
| K24Y/W56D/S58D | Ctrl | 0.50 0.44 0.44 0.25 0.42 0.46 |
| V29F/K36F/W56G | GP_HC | 0.00 0.21 0.11 -0.09 0.05 0.21 |
| Y31D/N37Q | Ctrl | n.d. n.d. 1.65 n.d. 1.44 1.82 |
| S25L/S28K/S33H/N35V/W56N | GP_HC | 1.55 1.89 1.39 0.88 1.22 1.29 |
| S25F/S26E/V29E/W56N/T59Q | GP_Gen | 0.27 0.58 0.03 -0.06 -0.07 0.19 |
| S25V/L30P/W56E/S62Q | GP_Gen | -1.54 -1.47 -1.34 n.d. n.d. -1.45 |

Excerpt, the final 3 entries:

| changes | group | log10 Kd (nM) by replicate |
|---|---|---|
| S25L/S28K/S33H/N35V/W56N | GP_HC | 1.55 1.89 1.39 0.88 1.22 1.29 |
| S25F/S26E/V29E/W56N/T59Q | GP_Gen | 0.27 0.58 0.03 -0.06 -0.07 0.19 |
| S25V/L30P/W56E/S62Q | GP_Gen | -1.54 -1.47 -1.34 n.d. n.d. -1.45 |

Empty control strains, which show no peptide, gave a signal in 4% of pairings with all light chain designs; the median was 2.64 and 95% of these signals were weaker than 1.59. No background was subtracted.
The range of this assay differs from that of the first round, and the authors advise against merging the two.
The authors averaged sequences with at least three values out of six and counted those with two or fewer as poor binders.
Of ten entries with the parent sequence, four were seen in most replicates (averages 0.34 to 2.37), three in one and three in none, so single entries are noisy.